Data reported in PubChem BioAssay AID887 (National Center for Advancing Translational Sciences (NCATS), 2007).
The entries are a selection whose mix differs from that of the whole data set. Some results for these compounds are left out of this collection, so the calls shown say nothing about other tests. Records with an inconclusive call do not appear. Activity calls are given as the source filed them. The call rests on the fitted dose curve; in most records, active means well fitted inhibition curve with a large enough effect; inconclusive means small, poorly fitted or top-dose-only effect; inactive means no such curve, though single readings can be large or run the other way.

Protein sequences, listed by entry. Tags and fused reporters are not part of them.
UniProt P16050, whole entry: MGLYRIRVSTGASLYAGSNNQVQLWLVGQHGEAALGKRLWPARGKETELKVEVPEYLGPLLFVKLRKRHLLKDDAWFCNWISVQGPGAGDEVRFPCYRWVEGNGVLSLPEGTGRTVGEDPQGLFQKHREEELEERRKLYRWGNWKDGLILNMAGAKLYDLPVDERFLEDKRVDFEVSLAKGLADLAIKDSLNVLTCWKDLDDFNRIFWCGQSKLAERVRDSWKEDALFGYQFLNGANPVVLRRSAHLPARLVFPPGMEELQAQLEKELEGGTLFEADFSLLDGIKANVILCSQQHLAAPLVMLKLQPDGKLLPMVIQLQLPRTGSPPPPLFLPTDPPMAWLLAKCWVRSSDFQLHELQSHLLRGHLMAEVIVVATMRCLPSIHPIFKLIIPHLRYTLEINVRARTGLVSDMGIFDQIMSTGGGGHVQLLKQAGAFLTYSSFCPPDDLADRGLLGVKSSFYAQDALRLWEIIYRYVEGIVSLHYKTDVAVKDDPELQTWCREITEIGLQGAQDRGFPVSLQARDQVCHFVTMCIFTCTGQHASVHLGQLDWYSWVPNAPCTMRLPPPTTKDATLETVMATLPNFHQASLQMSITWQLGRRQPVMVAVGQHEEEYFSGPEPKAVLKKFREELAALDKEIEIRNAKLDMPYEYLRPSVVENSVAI

molecular target: Polyunsaturated fatty acid lipoxygenase ALOX15 (Homo sapiens) (UniProt P16050); assay: qHTS Assay for Inhibitors of 15-hLO (15-human lipoxygenase); details: purified 15hLO-1, xylenol orange hydroperoxide absorbance; at 11.4 µM (top of the series) unless noted; further: nearly all actives have a fitted effect of over 55% in size
On the % scale 0 is the no-effect control and ±100 the full control effect.

Q: With `C=C(C)C#C[C@@](O)(C(=O)OC1CCN(C)CC1)c1ccccc1` as the compound, how does the activity change, negative = inhibition read?
A: inactive: 4.32%

Q: How did the activity change, negative = inhibition turn out when `CN1CC[C@H](OC(=O)[C@](O)(c2ccccc2)C2CCCC2)C1` was run?
A: inactive: 7.32%

Q: With `O=C(OC1CN2CCC1CC2)C(CO)(c1ccccc1)c1ccccc1` (stereo not given) as the compound, how does the activity change, negative = inhibition read?
A: inactive: -23.1% [at 57.1 µM]

Q: With `CN1CCC[C@H](OC(=O)[C@](O)(c2ccccc2)C2CCCC2)C1` as the compound, how does the activity change, negative = inhibition read?
A: inactive: 6.54%

Q: Which activity change, negative = inhibition does the source give for `CN(C)c1cccc(C(=O)NCC2(N(C)C)CCCCC2)c1` here?
A: inactive: -3.21% [at 57.1 µM]
